Experimental data from publication PMC5666424, “Marine-Derived 2-Aminoimidazolone Alkaloids. Leucettamine B-Related Polyandrocarpamines Inhibit Mammalian and Protozoan DYRK & CLK Kinases” (Marine Drugs, 2017).

By UniProt entry, the sequences of proteins in these tests, tags left out. Where a name states a change or a piece, a line headed by the entry shows the natural chain unless it says otherwise.
UniProt O35493: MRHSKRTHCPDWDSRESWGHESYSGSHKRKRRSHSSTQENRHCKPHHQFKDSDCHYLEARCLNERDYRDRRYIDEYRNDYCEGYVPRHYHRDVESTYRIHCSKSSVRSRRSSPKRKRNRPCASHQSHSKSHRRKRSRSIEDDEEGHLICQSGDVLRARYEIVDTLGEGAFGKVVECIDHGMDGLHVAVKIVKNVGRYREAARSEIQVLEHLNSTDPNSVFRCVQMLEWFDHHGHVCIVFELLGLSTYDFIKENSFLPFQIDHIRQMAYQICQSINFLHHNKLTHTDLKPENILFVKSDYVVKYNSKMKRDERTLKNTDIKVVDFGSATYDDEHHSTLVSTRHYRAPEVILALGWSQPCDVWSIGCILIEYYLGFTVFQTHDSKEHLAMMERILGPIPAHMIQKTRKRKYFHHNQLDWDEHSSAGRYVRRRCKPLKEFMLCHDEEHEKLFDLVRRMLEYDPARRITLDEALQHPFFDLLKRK

Assays:
[1] = target: CLK4 (Mus musculus, UniProt O35493); assay: Protein kinase assay; details: read-out: IC50 CLK4; 15 μmol/L ATP
[2] = target: T1, DYRK3 (Homo sapiens, UniProt O43781); assay: Protein kinase assay; assay type: biochemical; details: 15 μmol/L ATP
T1 sequence (O43781 1-588): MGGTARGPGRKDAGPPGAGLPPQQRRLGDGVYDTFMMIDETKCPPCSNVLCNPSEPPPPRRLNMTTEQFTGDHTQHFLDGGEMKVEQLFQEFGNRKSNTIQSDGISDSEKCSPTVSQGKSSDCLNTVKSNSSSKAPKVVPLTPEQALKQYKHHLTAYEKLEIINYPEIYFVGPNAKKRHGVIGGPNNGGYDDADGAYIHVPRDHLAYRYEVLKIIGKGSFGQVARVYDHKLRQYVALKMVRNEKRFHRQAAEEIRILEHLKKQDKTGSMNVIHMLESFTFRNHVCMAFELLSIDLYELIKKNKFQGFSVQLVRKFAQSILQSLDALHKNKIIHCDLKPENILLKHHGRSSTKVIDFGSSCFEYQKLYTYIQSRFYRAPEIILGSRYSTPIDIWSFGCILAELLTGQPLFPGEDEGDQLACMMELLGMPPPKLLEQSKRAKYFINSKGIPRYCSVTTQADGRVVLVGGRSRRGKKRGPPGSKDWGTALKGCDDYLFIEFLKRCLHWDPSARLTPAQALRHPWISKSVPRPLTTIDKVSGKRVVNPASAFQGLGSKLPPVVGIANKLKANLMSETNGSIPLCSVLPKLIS

O=C1NC(Nc2ccccc2)=N/C1=C\c1ccc2c(c1)OCO2 [Leucettine L41, reference compound]
IC50 [1]: 31 nM
IC50 [2]: 420 nM
